This is an account of results in patent publication US20260384401A1, “NOVEL BICYCLIC HETEROCYCLYL COMPOUNDS AND USE THEREOF” (published 2026).

By UniProt entry, the sequences of proteins in these tests, tags left out. Where a name states a change or a piece, a line headed by the entry shows the natural chain unless it says otherwise.
UniProt Q07889, whole entry, stated change not applied: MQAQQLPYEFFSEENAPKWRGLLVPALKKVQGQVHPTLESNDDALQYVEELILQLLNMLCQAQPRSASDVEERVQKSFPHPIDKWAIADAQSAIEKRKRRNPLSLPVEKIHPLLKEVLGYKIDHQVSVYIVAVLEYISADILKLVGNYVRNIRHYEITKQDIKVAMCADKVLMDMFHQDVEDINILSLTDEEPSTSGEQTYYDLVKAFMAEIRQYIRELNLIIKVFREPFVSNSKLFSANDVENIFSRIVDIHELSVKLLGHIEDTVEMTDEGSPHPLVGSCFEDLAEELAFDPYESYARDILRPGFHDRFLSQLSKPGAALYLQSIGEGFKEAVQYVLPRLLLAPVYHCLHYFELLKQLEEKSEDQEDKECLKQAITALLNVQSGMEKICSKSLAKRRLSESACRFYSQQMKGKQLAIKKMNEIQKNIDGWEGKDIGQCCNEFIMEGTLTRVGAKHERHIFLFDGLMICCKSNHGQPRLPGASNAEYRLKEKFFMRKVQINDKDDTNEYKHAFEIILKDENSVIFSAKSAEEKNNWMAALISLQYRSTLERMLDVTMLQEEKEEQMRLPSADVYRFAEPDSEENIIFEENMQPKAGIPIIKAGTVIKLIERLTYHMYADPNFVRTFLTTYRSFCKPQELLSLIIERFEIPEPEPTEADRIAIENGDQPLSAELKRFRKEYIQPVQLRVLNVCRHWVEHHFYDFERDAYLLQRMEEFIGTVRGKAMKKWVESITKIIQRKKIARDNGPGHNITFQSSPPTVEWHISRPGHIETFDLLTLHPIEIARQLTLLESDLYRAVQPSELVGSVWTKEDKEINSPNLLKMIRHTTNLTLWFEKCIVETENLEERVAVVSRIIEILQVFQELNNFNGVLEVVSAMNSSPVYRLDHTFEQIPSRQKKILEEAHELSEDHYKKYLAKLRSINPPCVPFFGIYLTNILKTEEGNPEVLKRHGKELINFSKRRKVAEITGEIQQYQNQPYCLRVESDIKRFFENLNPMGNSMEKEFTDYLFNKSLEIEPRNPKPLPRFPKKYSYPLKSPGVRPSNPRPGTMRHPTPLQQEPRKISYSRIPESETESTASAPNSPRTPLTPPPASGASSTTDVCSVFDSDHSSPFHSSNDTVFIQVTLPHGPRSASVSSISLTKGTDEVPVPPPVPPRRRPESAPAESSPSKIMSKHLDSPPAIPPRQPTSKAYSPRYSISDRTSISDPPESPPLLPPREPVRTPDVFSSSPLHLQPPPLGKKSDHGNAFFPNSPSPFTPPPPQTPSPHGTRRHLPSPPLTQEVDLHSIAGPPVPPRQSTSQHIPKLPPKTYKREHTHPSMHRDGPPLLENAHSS

The assay addresses KRAS G12C/SOS1 (Homo sapiens, UniProt Q07889). The experiment in a line: KRAS::SOS1 HTRF Binding Analysis (inhibition of protein-protein interaction between SOS1 and KRAS G12C). To be noted: 0.1 uM compound, GTP, room temperature, one hour and 40 minutes. As for the experimental part:
An SOS1 inhibitory ability of the example compounds of the present invention was confirmed by identifying the effect of inhibiting a protein-protein interaction between SOS1 and KRAS G12C of the compounds according to examples of the present invention.
Specifically, a KRAS G12C/SOS1 binding kit (64KRASG12PEG, Cisbio, France) was text use purchased and used. 2 ? of Tagl-KRAS G12C and 2 ? of GTP were premixed and dispensed 4 μl each into a 384 well plate (6007290, PerkinElmer, USA). 2 ? of the compound and 4 ? of Tag2-SOS1 were placed and then 10 ? of premixed Anti-Tag1 XL665 antibody and Anti-Tag2 Tb cryptate antibody was dispensed to each well. The plates were sealed and allowed to react at room temperature for one hour and 40 minutes, and then 665 nm wavelength and 620 nm wavelength were measured using a HTRF® compatible reader (Synergy H4, BioTeK, USA), and the ratio of receptor and donor emission signals for each well was calculated as 665 nm/620 nm×10^4.
(+++: more than 70 to 100% inhibition, ++: more than 40 to 70% inhibition, +: 0 to 40% inhibition)

For the compound `C[C@@H](Nc1cnnc2ccc(C3=CCN(C(=O)C4CC4)CC3)cc12)c1cccc(C(F)F)c1F`, the “% inhibition at 0.1 uM” value was “+ (0 to 40% inhibition)”.

Consider `C[C@@H](Nc1cnnc2ccc(N3CC4(CN(C)C4)C3)cc12)c1cccc(C(F)F)c1F`, for which the “% inhibition at 0.1 uM” value is on record as “+++ (more than 70 to 100% inhibition)”.
